# Assay results as given in article PMC5248591 (Journal of Clinical Pharmacology, 2016).
# Where two headings read alike, the source gives them in different places.
# Columns and labels:
# [1] = test system: FcεR1/SYK‐mediated basophil degranulation; conditions: MAD
# [2] = test system: BCR/SYK‐mediated B‐cell activation; conditions: SAD 200‐ and 300‐mg cohorts combined
structure (smiles),measurement,setting,value
"CC(=O)O.NC(=O)c1cnc(N[C@@H]2CCCC[C@@H]2N)nc1Nc1cccc(-n2nccn2)c1 [PRT062607, 4‐((3‐(2H‐1,2,3‐triazol‐2‐yl)phenyl)amino)‐2‐(((1R,2S)‐2‐aminocyclohexyl)amino)pyrimidine‐5‐carboxamide acetate]",inhibition in the basophil degranulation assay,[1]; 33 mg,Only modest inhibition
same,inhibition in the basophil degranulation assay,[1]; 110 mg,complete inhibition
same,reversal of inhibition of BCR‐mediated B‐cell activation,[2],returned to predose levels after 24 hours
